The record followed here is US7994163B2 (dated 2011).

Sequences of proteins named here, by UniProt entry; tags and fusion partners are left off.
UniProt P28223, whole entry: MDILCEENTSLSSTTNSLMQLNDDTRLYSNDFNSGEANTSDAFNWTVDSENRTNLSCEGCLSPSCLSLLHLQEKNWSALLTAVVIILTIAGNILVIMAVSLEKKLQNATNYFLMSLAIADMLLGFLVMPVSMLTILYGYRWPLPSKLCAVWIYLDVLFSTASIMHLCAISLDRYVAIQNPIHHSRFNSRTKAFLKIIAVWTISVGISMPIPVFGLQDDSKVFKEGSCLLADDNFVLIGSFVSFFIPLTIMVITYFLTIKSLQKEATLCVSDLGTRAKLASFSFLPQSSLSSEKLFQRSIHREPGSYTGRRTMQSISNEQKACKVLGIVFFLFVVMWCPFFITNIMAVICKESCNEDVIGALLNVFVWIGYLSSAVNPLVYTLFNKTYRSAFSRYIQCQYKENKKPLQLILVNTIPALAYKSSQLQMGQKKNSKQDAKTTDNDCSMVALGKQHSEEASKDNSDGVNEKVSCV
UniProt P41595, whole entry: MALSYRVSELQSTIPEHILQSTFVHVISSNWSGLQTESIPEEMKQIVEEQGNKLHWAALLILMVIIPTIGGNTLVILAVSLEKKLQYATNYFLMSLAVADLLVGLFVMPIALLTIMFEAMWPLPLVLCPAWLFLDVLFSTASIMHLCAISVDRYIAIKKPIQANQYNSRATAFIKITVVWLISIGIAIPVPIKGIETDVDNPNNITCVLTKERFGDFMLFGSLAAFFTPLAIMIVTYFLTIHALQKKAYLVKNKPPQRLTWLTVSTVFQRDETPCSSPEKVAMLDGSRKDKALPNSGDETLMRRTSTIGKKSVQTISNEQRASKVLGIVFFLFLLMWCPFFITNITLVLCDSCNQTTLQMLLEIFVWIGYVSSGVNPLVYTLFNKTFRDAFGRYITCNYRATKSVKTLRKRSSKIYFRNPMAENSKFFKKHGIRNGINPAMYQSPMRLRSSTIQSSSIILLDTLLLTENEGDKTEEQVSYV

The target in one assay is 5-HT2A receptor (Homo sapiens, UniProt P28223). The following applies: normalized AUC at 5-HT2C / normalized AUC at 5-HT2A.
For another assay, the target named is 5-HT2B receptor (Homo sapiens, UniProt P41595). The following applies: normalized AUC at 5-HT2C / normalized AUC at 5-HT2B.

Regarding `Clc1cccc(N2CCNCC2)c1` [mCPP, meta-chlorophenylpiperazine], at 5-HT2A receptor, the “Selectivity Ratio AUC 2C/2A” value is recorded as 2.1. Moreover, the “Selectivity Ratio AUC 2C/2B” value at 5-HT2B receptor is given as 2.1.
